Earlier results in patent US11679103B2, “Multi-targeting agents for Alzheimer's disease therapy” (The Regents of the University of California, priority 2018, dated 2023).

Target: T1, Amyloid β (Homo sapiens, UniProt P05067)
T1 construct: host or cells: AD patients (clinical trials)
Settings: cited from earlier work

In the case of “Bapineuzumab: anti-amyloid monoclonal antibody”, the “Aβ plaque load measured by PET imaging, before vs after antibody treatment” value (large clinical trials) is listed as “did not change significantly” and the “Outcome (clinical)” value (mild to moderate AD subjects) is listed as “Did not improve”.
